{"source": "paper PMC12579162", "about": "“Synthesized Depside Molecules Suppress the Progression of Colorectal Cancer by Binding VDAC1/PHB/MMP9 Being at the Crossroads of Stemness, Motility, Apoptosis, and Metabolism” (MedComm, 2025)", "key": {"CSC221 cells [1]": {"system": "CSC221 cells", "assay": "MTT cell viability, CSC221", "type": "cell-based, human", "conditions": "CSC221, MTT assay", "description": "Cells (3 × 10^3 cells/well) were seeded on a 96‐well plate, grown overnight, and then treated with compounds at indicated concentrations for 48 h. After incubation with MTT for 4 h at 37°C, cells were lysed with 150 µL of DMSO (Sigma–Aldrich, St. Louis, USA). Absorbance was measured at 570 nm on a microplate reader with the Gen5 software (v.2.03.1; BioTek, Winooski, VT, USA)."}, "CSC221 cells [2]": {"system": "CSC221 cells", "assay": "Spheroid formation assay, CSC221", "type": "cell-based, human", "conditions": "CSC221, 10, 25, and 50 µg/mL, 2 weeks", "description": "Monolayer cells were separated into single‐cell suspensions at around 70% confluence using a solution of trypsin. After that, the cells were added to N2‐supplemented DMEM/F12 that contained human basal fibroblast growth factor and human recombinant epidermal growth factor. Cells seeded at a density of 5 × 10^3 cells/well in ultra‐low attachment 24‐well plates (Corning Inc., Corning, NY, USA). After 10–14 days of culture, spheres were quantitated by inverted phase contrast microscopy. The relative sphere formation ability was calculated through the IMT iSolution software (IMT iSolution Inc., Northampton, NJ, USA) measuring the pixel intensity of the sphere area randomly in each plate."}}}
{"substance": "cetuximab: EGFR‐targeted therapy approved by the United States Food and Drug Administration in 2004 [reference compound]", "values": [{"measurement": "cytotoxic effect, treatment alone", "setting": "CSC221 cells [1]", "value": "did not show cytotoxic effects"}, {"measurement": "spheroid formation, single treatment", "setting": "CSC221 cells [2]", "value": "significantly induced spheroid formation"}]}
